The values below come from US7067262B2, “Cell line for the expression of an α2δ2 calcium channel subunit and methods of use” (Warner Lambert Company LLC, priority 2000, dated 2006).

Sequences of proteins named here, by UniProt entry; tags and fusion partners are left off. A change or cut given only in a name is not applied to a line headed by its entry. Residues count along the entry.
UniProt A0A287BIN3, 25-1109: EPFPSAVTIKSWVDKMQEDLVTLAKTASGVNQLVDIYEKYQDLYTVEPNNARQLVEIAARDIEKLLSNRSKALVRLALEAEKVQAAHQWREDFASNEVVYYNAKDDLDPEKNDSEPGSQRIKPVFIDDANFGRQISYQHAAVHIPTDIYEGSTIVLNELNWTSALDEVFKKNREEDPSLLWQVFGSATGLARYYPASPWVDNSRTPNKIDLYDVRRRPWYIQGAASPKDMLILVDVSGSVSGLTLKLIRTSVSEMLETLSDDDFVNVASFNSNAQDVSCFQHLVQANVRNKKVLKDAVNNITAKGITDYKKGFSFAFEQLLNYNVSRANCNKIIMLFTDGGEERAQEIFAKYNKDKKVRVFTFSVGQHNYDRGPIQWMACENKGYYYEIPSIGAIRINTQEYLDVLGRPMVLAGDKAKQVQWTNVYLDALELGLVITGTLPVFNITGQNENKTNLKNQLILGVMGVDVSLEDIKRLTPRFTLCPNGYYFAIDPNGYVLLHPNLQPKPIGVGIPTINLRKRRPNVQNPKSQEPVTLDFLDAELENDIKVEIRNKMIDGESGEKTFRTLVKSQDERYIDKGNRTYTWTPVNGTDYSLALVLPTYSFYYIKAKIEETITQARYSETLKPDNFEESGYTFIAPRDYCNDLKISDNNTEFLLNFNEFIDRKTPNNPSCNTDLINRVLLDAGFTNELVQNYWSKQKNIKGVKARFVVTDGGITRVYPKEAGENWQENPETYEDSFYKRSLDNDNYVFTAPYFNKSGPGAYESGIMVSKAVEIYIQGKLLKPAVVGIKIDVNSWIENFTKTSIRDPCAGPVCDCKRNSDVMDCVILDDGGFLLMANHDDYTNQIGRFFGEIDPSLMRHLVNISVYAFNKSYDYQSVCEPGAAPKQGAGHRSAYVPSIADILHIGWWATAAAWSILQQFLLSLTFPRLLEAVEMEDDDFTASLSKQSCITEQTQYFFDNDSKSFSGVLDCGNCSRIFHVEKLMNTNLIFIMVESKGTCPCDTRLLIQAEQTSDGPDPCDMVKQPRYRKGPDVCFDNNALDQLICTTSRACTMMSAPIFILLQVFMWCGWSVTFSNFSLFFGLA

The assay has as its target T1, porcine α2δ1 (pα2δ1) calcium channel subunit (Sus scrofa, UniProt A0A287BIN3).
T1 construct: expressed in transfected cells
In words: [3H]gabapentin radioligand binding to membranes from HEK293 stable cell line GKS02. The method, then: Cell culture and transfection. […] The media were supplemented with 50 units/mL penicillin, 50 μg/mL streptomycin, and 10% heat-inactivated fetal bovine serum (FBS), in a humidified incubator with 95% air and 5% CO2 at 37° C. For transient transfection into COS-7 cells, 20 μg of plasmid DNA (vector or the same vector with α2δ insert) was incubated with 30 μL of lipofectamine. The mixture was overlaid onto the cells in 1.5 mL serum-free medium and incubated for 5 hours. Then FBS was added to the dishes to bring the final concentration to 10%. The medium was changed next morning. Forty-eight hours after the transfection, the cells were harvested for membrane preparation. For stable transfection of porcine α2δ1 and human α2δ2 into HEK 293 cells, the same procedure was applied as that for a transient transfection except for that 800 μg/mL G418 (gentacin) was added to the cells 48 hours after the transfection. […] In addition, hosts for expression of α2δ2 protein binding assays can also include eukaryotic expression systems such as yeast, insect cells, and mammalian cells (CHO, COS-7, HEK293, etc.).
Membrane preparation. Membranes were prepared from tissues or cultured cells. […]
Binding assays. […] The filters were dried and counted in a liquid scintillation counter. […]

For `NCC1(CC(=O)O)CCCCC1` [Gabapentin, 1-(aminomethyl)cyclohexane acetic acid], the IC50 was 132 nM.
